From patent US7291478B1 come the findings set out here.

Amino acid sequences for entries named in this document (tags omitted). A change or cut given only in a name is not applied to a line headed by its entry.
UniProt Q45087: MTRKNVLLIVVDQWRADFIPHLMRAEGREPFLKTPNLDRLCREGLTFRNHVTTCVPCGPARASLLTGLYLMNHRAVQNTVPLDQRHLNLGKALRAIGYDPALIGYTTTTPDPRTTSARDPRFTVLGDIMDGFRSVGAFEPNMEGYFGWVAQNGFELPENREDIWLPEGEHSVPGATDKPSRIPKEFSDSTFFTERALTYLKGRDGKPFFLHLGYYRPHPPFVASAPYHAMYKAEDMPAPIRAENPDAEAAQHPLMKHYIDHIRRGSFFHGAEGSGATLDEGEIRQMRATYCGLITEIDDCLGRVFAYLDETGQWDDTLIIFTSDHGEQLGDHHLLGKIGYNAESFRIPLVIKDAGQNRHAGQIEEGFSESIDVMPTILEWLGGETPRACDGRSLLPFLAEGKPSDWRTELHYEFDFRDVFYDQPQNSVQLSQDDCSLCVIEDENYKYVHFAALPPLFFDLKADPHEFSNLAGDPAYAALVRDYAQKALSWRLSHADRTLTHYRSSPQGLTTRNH

The target of this experiment is phosphonate ester hydrolase (PEH) (Trinickia caryophylli, UniProt Q45087). To be noted: parent compound alkali hydrolyzed (1.0 N NaOH), neutralized, then 10 mM with PEH extract, pH 9.0, about 30° C.; GC-FPD.
Regarding `CNC(=O)/C=C(\C)OP(=O)(OC)OC`, the “Degradation by PEH of the alkali-treated (alkaline hydrolyzed) product of the named compound” value (from here on “Degradation by PEH of the alkali-treated”) is given as “not”.

`CCOC(=O)CC(SP(=S)(OC)OC)C(=O)OCC` (stereo not drawn): the “Degradation by PEH of the alkali-treated” value is on record as “not”.

For `CCOP(=S)(OCC)Oc1cc(C)nc(C(C)C)n1`, the “Degradation by PEH of the alkali-treated” value is listed as “not”.
